From patent US20040106626A1, “6-Membered unsaturated heterocyclic compounds useful for selective inhibition of the coagulation cascade” (Pharmacia Corporation, priority 2001, published 2004)

Sequences of proteins named here, by UniProt entry; tags and fusion partners are left off. Residues count along the entry.
UniProt P00742, 41-179 limits assumed: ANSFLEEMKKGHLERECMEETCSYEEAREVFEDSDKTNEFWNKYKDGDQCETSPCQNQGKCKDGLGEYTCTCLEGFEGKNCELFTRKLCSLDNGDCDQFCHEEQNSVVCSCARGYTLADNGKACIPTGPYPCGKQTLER
UniProt P00742, 235-488 limits assumed: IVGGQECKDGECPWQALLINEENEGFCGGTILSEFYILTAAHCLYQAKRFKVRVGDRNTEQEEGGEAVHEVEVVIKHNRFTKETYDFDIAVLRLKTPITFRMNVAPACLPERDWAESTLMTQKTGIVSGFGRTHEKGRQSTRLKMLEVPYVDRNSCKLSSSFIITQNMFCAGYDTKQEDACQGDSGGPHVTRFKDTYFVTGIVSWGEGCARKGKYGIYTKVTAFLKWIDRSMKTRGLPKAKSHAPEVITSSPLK

Target: T1, Human factor Xa (Homo sapiens, UniProt P00742)
T1 construct: purchased Enzyme Research Laboratories, South Bend Ind
Test: Xa assay (chromogenic substrate S-2765)
Assay type: biochemical
Conditions: reported only as less than or greater than 30 uM; read-out: Factor Xa (II) IC50
Experimental: Human factor Xa (0.3 nM) and 0.15 mM -a-Benzyloxycarbonyl-D-arginyl-L-glycyl-L-arginine-p-nitroaniline-dihydrochloride (S-2765) are added to a 96-well assay plate containing either inhibitor or buffer (50 mM Tris-HCl, pH 8.0, 100 mM NaCl, 0.1% BSA). The reaction, in a final volume of 100 ul is measured immediately at 405 nm to determine background absorbance. The plate is incubated at room temperature for 60 min, at which time the rate of hydrolysis of the substrate is measured by monitoring the reaction at 405 nm for the release of p-nitroaniline. Percent inhibition of Xa activity is calculated from OD405 nm value from the experimental and control sample.
Recombinant soluble TF, consisting of amino acids 1-219 of the mature protein sequence was expressed in E. coli and purified using a Mono Q Sepharose FPLC. Recombinant human VIIa was purchased from American Diagnostica, Greenwich CT and chromogenic substrate N-methylsulfonyl-D-phe-gly-arg-p-nitroaniline was prepared by American Peptide Company, Inc., Sunnyvale, Calif. Factor Xa was obtained from Enzyme Research Laboratories, South Bend Ind., thrombin from Calbiochem, La Jolla, Calif., and trypsin and L-BAPNA from Sigma, St. Louis Mo. The chromogenic substrates S-2765 and S-2238 were purchased from Chromogenix, Sweden.

Question: How did the IC50 turn out when CC(C)Nc1ccc(-c2cc(N)cc(N)c2)n(CC(=O)NCc2ccc(C(=N)N)cc2)c1=O [Example 163] was run?
Answer: > 30 µM
